Source: ChEMBL document CHEMBL1127657, “Haloperidol-based irreversible inhibitors of the HIV-1 and HIV-2 proteases” (J Med Chem, 1994)

Target: Human immunodeficiency virus type 1 protease (Human immunodeficiency virus 1, UniProt Q72874)
Assay: In vitro inhibition of recombinant HIV-1 protease expressed in Escherichia coli strain D1210

Row | SMILES | IC50 [µM]
1 | O=C(/C=C(/CN1CCC(O)(c2ccc(Cl)cc2)CC1)SCCO)c1ccccc1 | 140
2 | O=C(CCCN1CCC(O)(c2ccc(Cl)cc2)CC1)c1ccc(F)cc1 [HALOPERIDOL] | 125
